Laboratory results from patent publication US10807989B2, “3-(carboxymethyl)-8-amino-2-oxo-1,3-diaza-spiro-[4.5]-decane derivatives” (dated 2020).

Sequences of proteins named here, by UniProt entry; tags and fusion partners are left off. A change or cut given only in a name is not applied to a line headed by its entry.
UniProt P35372, whole entry, looked up: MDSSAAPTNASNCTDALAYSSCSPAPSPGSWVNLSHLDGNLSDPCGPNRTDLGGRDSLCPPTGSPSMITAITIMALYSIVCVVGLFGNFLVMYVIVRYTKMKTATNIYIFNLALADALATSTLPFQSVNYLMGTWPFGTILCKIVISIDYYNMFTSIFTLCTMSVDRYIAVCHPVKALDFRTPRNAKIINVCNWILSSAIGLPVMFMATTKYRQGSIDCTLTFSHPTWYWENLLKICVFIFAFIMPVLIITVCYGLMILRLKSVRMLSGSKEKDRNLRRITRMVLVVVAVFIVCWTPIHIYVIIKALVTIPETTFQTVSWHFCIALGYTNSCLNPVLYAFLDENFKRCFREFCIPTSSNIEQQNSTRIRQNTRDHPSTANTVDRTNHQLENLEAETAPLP
UniProt P41146: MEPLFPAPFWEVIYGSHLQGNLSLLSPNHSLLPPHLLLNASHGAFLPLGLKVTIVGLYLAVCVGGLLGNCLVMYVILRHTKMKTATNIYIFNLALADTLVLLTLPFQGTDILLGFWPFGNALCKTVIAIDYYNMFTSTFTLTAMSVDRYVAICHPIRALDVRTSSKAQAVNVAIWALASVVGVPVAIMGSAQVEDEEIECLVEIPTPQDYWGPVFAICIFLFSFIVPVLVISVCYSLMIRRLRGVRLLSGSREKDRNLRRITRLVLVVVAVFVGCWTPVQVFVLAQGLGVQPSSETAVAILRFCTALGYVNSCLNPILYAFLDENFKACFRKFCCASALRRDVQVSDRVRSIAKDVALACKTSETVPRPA

Assays:
[1] = biological target: human mu-opioid peptide (hMOP) receptor (Homo sapiens (Human), UniProt P35372); assay: hMOP receptor binding assay (SPA, [3H]naloxone); conditions: read-out: hMOP Ki
[2] = biological target: human nociceptin/orphanin FQ peptide (hNOP) receptor (Homo sapiens (Human), UniProt P41146); assay: hNOP receptor binding assay (SPA, [leucyl-3H]nociceptin); conditions: read-out: hNOP Ki

| Structure (SMILES) | Ki [1] | Ki [2] |
| --- | --- | --- |
| CN(C)[C@]1(c2ccccc2)CC[C@]2(CC1)CN(CC(=O)NCC1CCC(O)C1)C(=O)N2CC1CCC1 (relative stereo) | 94 nM | 1.6 nM |
| CN(C)[C@]1(c2ccccc2)CC[C@]2(CC1)CN(CC(=O)NCC1CCC(O)CC1)C(=O)N2CC1CCC1 (relative stereo) | 49.5 nM | 1.8 nM |
| CN(C)[C@]1(c2ccccc2)CC[C@]2(CC1)CN(CC(=O)NC[C@H]1C[C@@H](O)C1)C(=O)N2CC1CCC1 (relative stereo) | 76.5 nM | 3.1 nM |
| CN(C)[C@]1(c2ccccc2)CC[C@]2(CC1)CN(CC(=O)NC[C@H]1C[C@H](O)C1)C(=O)N2CC1CCC1 (relative stereo) | 130 nM | 2.6 nM |
| COCCCN1C(=O)N(CC(=O)NCC2CCC(O)C2)C[C@]12CC[C@](c1ccccc1)(N(C)C)CC2 (relative stereo) |  | 95.5 nM |
| COCCCN1C(=O)N(CC(=O)NC[C@H]2C[C@@H](O)C2)C[C@]12CC[C@](c1ccccc1)(N(C)C)CC2 (relative stereo) |  | 110 nM |
| COCCCN1C(=O)N(CC(=O)NC[C@H]2C[C@H](O)C2)C[C@]12CC[C@](c1ccccc1)(N(C)C)CC2 (relative stereo) |  | 47 nM |
